Test [1] deals with T1, human FXR-LBD (GST-FXR-LBD) (Homo sapiens, UniProt Q96RI1).
T1 construct: the human FXR-LBD (residues 234–472) was expressed as a GST fusion protein GST-FXR-LBD; made in house; host or cells: E. coli BL21(DE3)
T1 sequence (Q96RI1 234-472 isoform Q96RI1-2): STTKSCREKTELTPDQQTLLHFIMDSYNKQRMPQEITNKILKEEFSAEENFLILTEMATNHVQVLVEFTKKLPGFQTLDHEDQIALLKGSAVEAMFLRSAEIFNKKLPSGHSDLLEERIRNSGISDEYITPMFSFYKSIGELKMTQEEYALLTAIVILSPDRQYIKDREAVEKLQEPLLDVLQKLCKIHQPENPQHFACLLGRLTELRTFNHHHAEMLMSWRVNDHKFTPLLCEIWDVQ
Nature of the test: HTRF coactivator recruitment assay, agonist mode. In kind it is biochemical.

For test [2], the target named is T1, human FXR-LBD (GST-FXR-LBD). Nature of the test: HTRF coactivator recruitment assay, antagonist mode (in the presence of 50 μM CDCA). In kind it is biochemical. A general note: Time-resolved FRET reads energy transfer from a long-lived donor to a nearby acceptor.

Take `CC(C)COP(=O)(OCC(C)C)OCC(C)C` [TIBP, triisobutyl phosphate]: in test [1], the “Relative activity, agonist mode” value was determined as 0.84%. Also, the “Relative activity, antagonist mode” value in test [2] is given as 9.18%.

The values above are taken from article PMC12010937, “Evaluation of FXR Activity in Pollutants Identified in Sewage Sludge and Subsequent in Vitro and in Vivo Characterization of Metabolic Effects of Triphenyl Phosphate” (Environmental Health Perspectives, 2025).
